Measured values from patent publication US20100104511A1, “METHODS AND COMPOSITIONS USING CHELATOR-ANTIBODY CONJUGATES” (priority 2006, published 2010).

Test system: A431 cells
Experiment: Apoptosis by Annexin-V-Fluos staining and flow cytometry
Conditions: A431, 10 μM, 72 hours

Structure (SMILES): COc1cc2ncnc(Nc3ccc(F)c(Cl)c3)c2cc1OCCCN1CCOCC1 [gefitinib]
- apoptosis percentage after deducting DMSO control: 24.7%
